Data on one substance can be found in US8394950B2, “Analogues of coformycin and their use for treating protozoan parasite infections” (Industrial Research Limited, priority 2006, dated 2013).

Where two headings read alike, the source gives them in different places. A value given as a limit tells only on which side of the number the result lay.

What all share (type): biochemical
In one assay the target is T1, BtADA (Bos taurus, UniProt P56658).
T1 construct: bovine adenosine deaminase from bovine spleen; purchased Sigma-Aldrich Chemical Company; host or cells: bovine spleen
T1 sequence (P56658 1-363): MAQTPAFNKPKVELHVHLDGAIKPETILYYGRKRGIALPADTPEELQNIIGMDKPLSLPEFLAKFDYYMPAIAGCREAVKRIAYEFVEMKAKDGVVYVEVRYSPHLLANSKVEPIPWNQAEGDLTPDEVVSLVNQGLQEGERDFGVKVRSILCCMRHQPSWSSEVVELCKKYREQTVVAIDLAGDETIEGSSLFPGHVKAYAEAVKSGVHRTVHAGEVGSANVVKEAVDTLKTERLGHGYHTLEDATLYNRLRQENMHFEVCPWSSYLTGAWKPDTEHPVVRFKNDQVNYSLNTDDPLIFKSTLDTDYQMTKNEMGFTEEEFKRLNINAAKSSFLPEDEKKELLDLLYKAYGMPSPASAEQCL
The experiment in a line: Inhibition of bovine adenosine deaminase (adenosine to inosine, absorbance change).

For the next assay, the target named is T2, PfADA (Plasmodium falciparum, UniProt Q8IJA9).
T2 sequence (Q8IJA9 1-367): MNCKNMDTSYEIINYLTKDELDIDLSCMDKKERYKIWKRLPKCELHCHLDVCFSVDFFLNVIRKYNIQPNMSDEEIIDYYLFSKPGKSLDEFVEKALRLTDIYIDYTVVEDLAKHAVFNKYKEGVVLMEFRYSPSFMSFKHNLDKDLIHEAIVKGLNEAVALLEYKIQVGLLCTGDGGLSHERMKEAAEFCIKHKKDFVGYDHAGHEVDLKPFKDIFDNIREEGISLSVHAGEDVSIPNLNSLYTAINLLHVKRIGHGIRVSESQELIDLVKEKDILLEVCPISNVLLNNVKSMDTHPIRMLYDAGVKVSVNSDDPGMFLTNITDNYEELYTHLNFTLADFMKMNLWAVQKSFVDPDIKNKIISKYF

A further assay deals with T3, HsADA (Homo sapiens, UniProt P00813).
T3 construct: Human adenosine deaminase from human erythrocytes; purchased Sigma-Aldrich Chemical Company; host or cells: human erythrocytes
T3 sequence (P00813 1-363): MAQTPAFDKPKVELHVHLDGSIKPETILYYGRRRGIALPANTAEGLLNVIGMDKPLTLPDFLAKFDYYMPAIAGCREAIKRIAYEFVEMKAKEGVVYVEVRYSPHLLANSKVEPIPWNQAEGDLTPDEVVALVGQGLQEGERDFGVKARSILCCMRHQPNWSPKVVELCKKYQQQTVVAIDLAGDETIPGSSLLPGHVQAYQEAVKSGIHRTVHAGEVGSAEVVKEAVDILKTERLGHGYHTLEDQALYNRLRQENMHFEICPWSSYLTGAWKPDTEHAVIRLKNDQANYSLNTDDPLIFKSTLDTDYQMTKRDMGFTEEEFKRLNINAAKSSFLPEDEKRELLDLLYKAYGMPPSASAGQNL
Nature of the assay: Inhibition of human adenosine deaminase (adenosine to inosine, absorbance change).

[1] abbreviates: initial dissociation constant, 100 μM adenosine, pH 7.0, 30° C., >10,000 = no inhibition at 10 μM.

Regarding “(8R)-8-hydroxy-3-(5-methylthio-β-D-ribofuranosyl)-3,6,7,8-tetrahydroimidazo[4,5-d][1,3]diazepine [5′-MeS-Coformycin (8)]”, the Ki at BtADA (setting [1]) is above 10000 nM; on PfADA (initial dissociation constant, 100 μM adenosine, pH 7.0, 30° C., read-out: PfADA Ki), 2.66 ± 0.13 nM; at PfADA (slow onset equilibrium dissociation constant, read-out: PfADA Ki^a) it was 0.43 ± 0.12 nM; on HsADA (setting [1]), above 10000 nM. Also, the “inhibition of bovine ADA (in words)” value at BtADA (mammalian ADAs) was “little effect on mammalian ADAs”. The “specificity for PfADA relative to HsADA” value at PfADA (PfADA relative to HsADA) is on record as > 20,000 fold. The “inhibition of PfADA (in words)” value was “potent, slow onset, tight binding inhibitor of PfADA” against PfADA (listed as 5′-Methylthiocoformycin) and “pM inhibitor of PfADA” on PfADA (listed as 5′-methylthiocoformycin). At HsADA (mammalian ADAs), the “inhibition of human ADA (in words)” value is given as “little effect on mammalian ADAs”.
